“Also recorded” adds a separate entry of the source.
Experiments:
Assay type in all cases: cell-based, human
LNCaP cells [1] = assay: Real-time PCR analysis of steroidogenic gene expression after exposure to LH, LNCaP cells
Experimental: (§1) Real-time PCR analysis. The quantitative measurement of target mRNA was performed using a real-time PCR system (Applied Biosystems 7500, Foster, Calif.) according to the manufacturer's instructions. PCR amplifications were performed with the SYBR Green PCR core reagent (Applied Biosystems) in a volume of 10 μl, with 1 μl of the reverse transcription products. LH and steroidogenic enzyme RNA quantification were assayed with the following primers: AKR1C1, 5′-[…]-3′ (forward), 5′-[…]-3′ (reverse); AKR1C2, 5′-[…]-3′ (forward), 5′-[…]-3′ (reverse); AKR1C3, 5′-[…]-3′ (forward), 5′-[…]-3′ (reverse); CYB5, 5′-gaagagcctgattggacac-3′ (forward), 5% […]-3′ (reverse); CYP11A1, 5′-[…]-3′ (forward), 5′-[…]-3′ (reverse); CYP17A1, 5′-[…]-3′ (forward), 5′-[…]-3′ (reverse); FASN, 5′-[…]-3′ (forward), 5′-[…]-3′ (reverse); HSD3B2, 5′-[…]-3′ (forward), 5′-[…]-3′ (reverse); HSD17B2, 5′-[…]-3′ (forward), 5′-[…]-3′ (reverse); HSD17B3, 5′-[…]-3′ (forward), 5′-[…]-3′ (reverse); RDH5, 5′-cagcaatgcctttgtettca-3′ (forward), 5′-[…]-3′ (reverse); SRD5A1, 5′-[…]-3′ (forward), 5′-[…]-3′ (reverse); SRD5A2, 5′-gccctctcctcatagtgetg-3′ (forward), 5′-[…]-3′ (reverse); StAR, 5′-ggctactcagctcgacctc-3′ (forward), 5′-[…]-3′ (reverse); and LHR, 5′-tcaattcttgtccaatcca-3′(forward), 5′-[…]-3′ (reverse). Each gene under each condition was amplified in triplicate. Analysis was performed with Applied Biosystems' software and the relative expression was standardized using expression of 18S as a reference, 5′-[…]-3′ (forward), 5′-tcgggagtgggtaatttge-3′ (reverse). Results were plotted as the mean ±SD from three experiments.
(§2) LNCaP cells treated with LH at doses of 0.1 and 1.0 IU/ml for four hours. 5×10^5 cells were seeded and treated with LH for four hours on a 100-mm plastic dish in serum-free RPMI-1640 medium. The quantitative measurement of target mRNA was performed using a real time PCR system (Applied Biosystems 7500, Foster, Calif.) according to the manufacturer's instructions, with 50 cycles for the melting (95° C., 15 s) and annealing/extension (59° C., 60 s) steps. PCR amplifications were performed with SYBR Green PCR core reagent (Applied Biosystems) in a total volume of 10 μl, with 1 μl of the reverse transcription products. Each gene in each experimental condition was amplified in triplicate. Relative gene expression levels (y axis) for the indicated enzymes were normalized by expression of the 18S and compared to the control in the same sample. Unpaired two-sample t-tests were used and a p value <0.05 was considered significant. Results were plotted as mean ±S.D. from at least three experiments.
as §2, with “cells (5×10^5) were seeded and” for “cells”, “for 10 days” for “for four hours. 5×10^5 cells were seeded and treated with LH for four hours”, “in” for “in serum-free”, “RPMI-1640 medium supplemented with 1% charcoal-stripped FBS. LH and medium were replaced every two days.” for “RPMI-1640 medium.”, “gene at” for “gene in”, “experiments. Long-term treatment with LH for 10 days doubled the number of activated genes for steroidogenic enzymes (from 4 to 8) as compared to short-term 4-hour exposure to LH.” for “experiments.”

C4-2B cells = assay: Real-time PCR analysis of steroidogenic gene expression after exposure to LH, C4-2B cells
Experimental: as §1

22Rv1 cells = assay: Real-time PCR analysis of steroidogenic gene expression after exposure to LH, 22Rv1 cells
Experimental: as §1

LNCaP cells [2] = assay: Western blot analysis of steroidogenic enzymes in LH-treated cells; settings: LH 5.0 IU/ml for 96 hours
Experimental: Western blot analysis. Equal amounts of protein (10 μg) from cell lysates were heated at 95° C. for 5 min in the sample loading buffer, then subjected to SDS-PAGE and transferred to nitrocellulose membranes. The blots were probed overnight at 4° C. with the appropriate commercially available primary antibodies, including anti-LHR rabbit polyclonal antibody (1:200, Santa Cruz Biotech), anti-LH mouse monoclonal antibody (1:1000, Santa Cruz Biotech, Santa Cruz, Calif.), anti-CYP-17A1 rabbit polyclonal (1:400, Abeam, Cambridge, Mass.), anti-CYP-11A1 rabbit polyclonal antibody (1:400, Abeam), and anti-StAR mouse monoclonal antibody (1:500, Abeam). After incubation with the corresponding horseradish peroxidase-conjugated secondary antibodies, the blots were further probed with corresponding HRP-conjugated antibodies and visualized by enhanced chemiluminescence (Pierce, Rockford, Ill.). Rabbit anti-β-actin antibody (1:2,000, Sigma Chemical Co.) served as loading control. Quantification of the bands was performed with Quantity One software (Bio-Rad Lab, Hercules, Calif.).

LNCaP cells [3] = assay: Steroid analysis by radioimmunoassay; settings: LH 1.0 IU/ml for 10 days, RIA, compared to controls
Experimental: Steroid analysis by radioimmunoassay. Concentrations of the steroids progesterone and testosterone were determined using radioimmunoassay as described previously (11-13). Data were normalized per 10^6 cells and expressed as the mean ±SD from three 100 ml cell culture dishes per group.

LNCaP cells [4] = assay: Cyclic AMP assay; settings: LH 1.0 IU/ml, p<0.05
Experimental: Cyclic AMP assay. The cAMP assay was performed using the correlate-EIA direct cAMP enzyme immunoassay kit (Assay Designs, Inc., Ann Arbor, Mich.) according to manufacturer's instructions.

LNCaP cells [5] = assay: Protein kinase A assay; settings: LH, compared to negative controls, p<0.05
Experimental: Protein kinase A assay. PKA activity was measured using a PKA kinase activity assay kit (Assay Designs, Inc., Ann Arbor, Mich.) according to manufacturer's instructions. The PKA activity was measured in cells treated with LH and in negative controls. Each sample was standardized by protein concentration.

LNCaP cells [6] = assay: Cell viability assay
Experimental: Cell viability assay. Cells were treated with LH at varying concentrations and incubated with 20 μl of Celltiter 96® Aqueous One Solution Cell Proliferation assay (Promega Co., Madison, Wis.) according to the manufacturer's instruction. The optical density was determined using a microplate reader (SpectraMax Plus) at 490 nm. The cell viability following LH treatment was expressed vs. negative control and plotted as the mean ±SD.

LH: Human luteinizing hormone obtained from Fitzgerald Industries Intl.; added externally to prostate cancer cells
number of up-regulated genes involved in androgen synthesis, 10 days vs 4-hour exposure (LNCaP cells [1]; LH): twice as many genes; also recorded: doubled
number of genes involved in steroidogenesis significantly stimulated (out of 14 tested) (LNCaP cells [1]; LH 0.1 and 1.0 IU/ml for 4 hours, p<0.05): 4 genes
number of genes involved in steroidogenesis significantly stimulated (LNCaP cells [1]; LH 0.1 and 1.0 IU/ml for 10 days, P<0.05): 8 genes
increase in expression of most of the genes examined (LNCaP cells [1]; LH 1.0 IU/ml, ten day exposure, compared to controls): 2-4 fold
steroidogenic gene expression (LNCaP cells [1]; LH for 4 hours and 10 days): dose- and time-dependent increase
expression of StAR, HSD17B3, SRD5A1 and CYP17A1 (LNCaP cells [1]; LH for 4 hours, 0.1 and 1.0 IU/ml, compared to controls): dose-dependent increase
number of significantly up-regulated genes, ten day vs short-term exposure (C4-2B cells; LH 1.0 IU/ml): tripled
increase in the expression levels of up-regulated genes (C4-2B cells; LH 1.0 IU/ml, ten day treatment, compared to controls): 2-6 fold
steroidogenic gene expression (C4-2B cells; LH for 4 hours and 10 days): dose- and time-dependent increase
steroidogenic gene expression (22Rv1 cells; 22RV1 cells, LH for 4 hours and 10 days): dose- and time-dependent increase
number of significantly up-regulated genes, ten day vs short-term exposure (22Rv1 cells; 22Rv1 cells, LH 1.0 IU/ml): tripled
increase in the expression levels of up-regulated genes (22Rv1 cells; 22Rv1 cells, LH 1.0 IU/ml, ten day treatment, compared to controls): 2-6 fold
densitometric measurement of expression of proteins (LNCaP cells [2]): approximately two-fold increase
expression of the steroidogenic proteins StAR, CYB5B, CYP11A and 3βHSD (LNCaP cells [2]; compared to untreated controls): increased expression
production of progesterone (LNCaP cells [3]): significantly stimulated; also recorded: significantly increased; also recorded: significant increase
production of testosterone (LNCaP cells [3]): significantly stimulated; also recorded: significantly increased; also recorded: significant increase
increase in cAMP level (LNCaP cells [4]): 2.8 fold
increase in PKA activity (LNCaP cells [5]): 34.1%
increase in cell viability (LNCaP cells [6]; LH 1.0 IU/ml, 72 hours, compared to the control group, p<0.05): 37%
cell viability (LNCaP cells [6]; LH at varying concentrations): dose-dependent increase; also recorded: increases LNCaP cell viability to a similar degree as dihydrotestosterone (DHT)

— US8680055B2, “Methods for decreasing steroidogenesis in prostate cancer cells” (University of Southern California, priority 2009, dated 2014)
